These are literature values, as cited in patent US9907765B2, “Treatment of connective tissue diseases of the skin” (Cipher Pharmaceuticals, Inc., priority 2005, dated 2018).

This data set has as its system skin of humans. As to conditions: in vivo; cited from earlier work.

As to “1-[[(1,1-Dimethylethyl)amino]methyl]-4-hydroxy-1,3-benzenedimethanol [Salbutamol]”, the “topical sensitization / contact dermatitis reactions” value was “topical sensitizer that causes contact dermatitis reactions”.
